Sequences of proteins named here, by UniProt entry; tags and fusion partners are left off. A change or cut given only in a name is not applied to a line headed by its entry.
UniProt P41146: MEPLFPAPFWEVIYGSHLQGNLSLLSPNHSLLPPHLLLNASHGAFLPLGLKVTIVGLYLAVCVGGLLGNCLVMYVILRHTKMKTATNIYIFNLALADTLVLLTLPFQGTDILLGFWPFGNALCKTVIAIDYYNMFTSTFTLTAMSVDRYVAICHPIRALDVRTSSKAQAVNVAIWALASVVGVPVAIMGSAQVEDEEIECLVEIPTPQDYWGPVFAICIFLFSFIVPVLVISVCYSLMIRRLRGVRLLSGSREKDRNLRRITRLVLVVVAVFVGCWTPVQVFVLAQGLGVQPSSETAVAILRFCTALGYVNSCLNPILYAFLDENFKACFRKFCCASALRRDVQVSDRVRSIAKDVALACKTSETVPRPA

The assay concerns the target Nociceptin receptor (Homo sapiens) (UniProt P41146). Description: Agonist activity as maximal effect in [35S]-GTP-gamma binding assay compared to 60 nM N/OFQ.
In general, Emax refers to the maximal effect, on the per cent scale that the assay sets. With `O=S1(=O)NCc2ccccc2N1C1CCN(C2Cc3ccccc3C2)CC1`, the Emax amounted to 98%. As for `O=S1(=O)NCc2ccccc2N1C1CCN(Cc2ccc3ccccc3c2)CC1`, the figure is 83%.

Consider `O=S1(=O)Nc2ccccc2N1C1CCN(C2CCC3CCCCC3C2)CC1` (stereo not drawn), for which the maximum response (Emax) came to 66%. As for `CC(C)C1CCC(N2CCC(N3c4ccccc4CN(CC(N)=O)S3(=O)=O)CC2)CC1` (stereo not drawn), the figure is 97%; as for `O=S1(=O)NCc2ccccc2N1C1CCN(C2CCCCCCC2)CC1`, 79%.

`CC(C)C1CCC(N2CCC(N3c4ccccc4NS3(=O)=O)CC2)CC1` (stereo not drawn) gave an Emax of 78%. Next, `CCCC1CCC(N2CCC(N3c4ccccc4CNS3(=O)=O)CC2)CC1` (stereo not drawn): 96%; `CC(C)C1CCC(N2CCC(N3c4ccccc4CN(CC#N)S3(=O)=O)CC2)CC1` (stereo not drawn): 98%.

With `CC(C)C1CCC(N2CCC(N3c4ccccc4CN(CCNS(C)(=O)=O)S3(=O)=O)CC2)CC1` (stereo not drawn), the Emax is 98%. As for `COC(=O)CN1Cc2ccccc2N(C2CCN(C3CCC(C(C)C)CC3)CC2)S1(=O)=O` (stereo not drawn), the figure is 92%. As for `O=S1(=O)NCc2ccccc2N1C1CCN(C2CCC3CCCCC3C2)CC1` (stereo not drawn), the figure is 94%; as for `O=S1(=O)NCc2ccccc2N1C1CCN(CCC(c2ccccc2)c2ccccc2)CC1`, 99%; as for `CC(C)C1CCC(N2CCC(N3c4ccccc4CN(CC(=O)OC(C)(C)C)S3(=O)=O)CC2)CC1` (stereo not drawn), 61%.

These data come from ChEMBL document CHEMBL1137888, “1,3-Dihydro-2,1,3-benzothiadiazol-2,2-diones and 3,4-dihydro-1H-2,1,3-benzothidiazin-2,2-diones as ligands for the NOP receptor” (2004).
